Test results published in patent US7799753B2, “Bisubstrate inhibitors of protein tyrosine kinases as therapeutic agents” (Board of Governers for Higher Education, priority 2004, dated 2010).

Amino acid sequences for entries named in this document (tags omitted).
UniProt P12931, whole entry, species assumed: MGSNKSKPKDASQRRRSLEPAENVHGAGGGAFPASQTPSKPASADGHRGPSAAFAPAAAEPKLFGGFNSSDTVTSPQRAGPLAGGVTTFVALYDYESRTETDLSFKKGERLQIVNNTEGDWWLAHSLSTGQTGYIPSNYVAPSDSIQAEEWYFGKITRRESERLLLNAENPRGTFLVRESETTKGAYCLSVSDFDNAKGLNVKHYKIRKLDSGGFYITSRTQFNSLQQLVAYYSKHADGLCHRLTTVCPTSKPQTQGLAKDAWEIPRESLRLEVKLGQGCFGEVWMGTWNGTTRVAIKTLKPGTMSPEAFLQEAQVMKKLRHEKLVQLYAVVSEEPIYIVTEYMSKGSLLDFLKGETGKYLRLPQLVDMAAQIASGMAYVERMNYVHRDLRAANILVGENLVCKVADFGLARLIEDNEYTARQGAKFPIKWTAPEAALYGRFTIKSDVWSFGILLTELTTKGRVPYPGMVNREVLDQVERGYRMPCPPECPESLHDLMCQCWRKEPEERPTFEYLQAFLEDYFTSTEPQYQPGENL

Biological target: Src (Homo sapiens, UniProt P12931)
Assay: Radioactive kinase assay, polyE4Y phosphorylation by Src (peptides, N-heteroaromatics and conjugates)
Type: biochemical
Conditions: modified peptide analogs; read-out: IC50 (μM), Src kinase inhibitory potency (Table 1)

SMILES | IC50
CC[C@H](C)[C@H](N)C(=O)N[C@@H](Cc1ccc(O)cc1)C(=O)N[C@@H](CCCCN)C(=O)N[C@@H](Cc1ccc(O)cc1)C(=O)N[C@@H](Cc1ccc(O)cc1)C(=O)O [Compound 81, IYKYY] | 211 µM
CC[C@H](C)[C@H](NC(=O)[C@H](CS)NC(C)=O)C(=O)N[C@@H](Cc1ccc(O)cc1)C(=O)N[C@@H](CCCCN)C(=O)N[C@@H](Cc1ccc(O)cc1)C(=O)O [Compound 82, Ac-CIYKY] | > 100 µM
